Measurements from ChEMBL document CHEMBL4627412.

Molecular target: Human immunodeficiency virus type 1 protease (Human immunodeficiency virus 1, UniProt Q72874)
Test: Inhibition of HIV1 NL4-3 protease expressed in Escherichia coli TAP-106 cells using EDANS/DABCYL-labelled 10-amino acid containing protease cleavage site as substrate preincubated for 1 hr followed by substrate addition and measured for 60 mins by FRET assay

## Cc1cccc(C)c1OCC(=O)N[C@@H](Cc1ccccc1)[C@@H](O)C[C@H](Cc1ccccc1)NC(=O)[C@H](C(C)C)N1CCCNC1=O [LOPINAVIR]
  Ki: < 5 pM
